Experimental findings from patent US20240254138A1, “TRICYCLIC PYRIMIDINES AS CYCLIN-DEPENDENT KINASE 7 (CDK7) INHIBITORS” (JANSSEN PHARMACEUTICA NV, priority 2021, published 2024) are described below.

Sequences of proteins named here, by UniProt entry; tags and fusion partners are left off.
UniProt P50613, whole entry: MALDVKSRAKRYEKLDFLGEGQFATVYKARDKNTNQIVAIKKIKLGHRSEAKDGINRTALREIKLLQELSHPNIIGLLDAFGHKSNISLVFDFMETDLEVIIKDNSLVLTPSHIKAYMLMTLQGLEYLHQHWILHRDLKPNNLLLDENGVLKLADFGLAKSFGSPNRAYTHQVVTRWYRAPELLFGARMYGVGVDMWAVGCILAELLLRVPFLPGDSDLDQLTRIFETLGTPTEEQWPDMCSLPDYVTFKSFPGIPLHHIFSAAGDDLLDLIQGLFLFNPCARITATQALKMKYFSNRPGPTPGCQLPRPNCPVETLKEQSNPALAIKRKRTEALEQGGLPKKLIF
UniProt P51946, whole entry partner: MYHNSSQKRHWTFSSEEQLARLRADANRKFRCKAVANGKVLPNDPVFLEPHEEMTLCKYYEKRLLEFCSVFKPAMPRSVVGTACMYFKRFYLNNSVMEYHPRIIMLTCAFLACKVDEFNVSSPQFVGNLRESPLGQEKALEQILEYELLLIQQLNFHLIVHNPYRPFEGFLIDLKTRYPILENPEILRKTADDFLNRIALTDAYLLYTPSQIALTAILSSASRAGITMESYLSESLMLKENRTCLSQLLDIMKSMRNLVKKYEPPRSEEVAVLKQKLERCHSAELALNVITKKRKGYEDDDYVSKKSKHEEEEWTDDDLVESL
UniProt P51948, whole entry partner: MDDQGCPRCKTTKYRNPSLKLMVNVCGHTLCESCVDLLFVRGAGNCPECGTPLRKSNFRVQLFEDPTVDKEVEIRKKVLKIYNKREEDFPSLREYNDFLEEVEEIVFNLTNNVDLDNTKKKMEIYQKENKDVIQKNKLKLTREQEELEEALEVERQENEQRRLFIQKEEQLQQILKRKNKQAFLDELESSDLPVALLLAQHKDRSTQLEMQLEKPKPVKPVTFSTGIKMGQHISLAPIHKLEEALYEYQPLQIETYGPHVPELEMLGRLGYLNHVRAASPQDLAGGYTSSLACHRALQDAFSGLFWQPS

SMILES strings stand for the structures.

For experiment [1], the target named is CDK7/cyclinH/MAT1 trimeric complex (Homo sapiens, UniProt P50613). In words: In vitro CDK7 assay, potency of irreversible covalent inhibitors (kinact/KI), coupled PK/LDH ADP readout at 340 nm. Conditions: 20 nM enzyme.
The subject of experiment [2] is RNA Polymerase II Serine 5 phosphorylation (Rpb1 CTD, downstream substrate of CDK7) in A549 cells. Description: Imaging-based cellular RNA PolII Ser5 phosphorylation assay in A549 cells. Conditions: averaged over all measurements. How it is done:
(§1) To evaluate inhibition of CDK7 kinase activity, a 384-well automated imaging assay was used. This assay detects Serine 5 phosphorylation on a unique heptapeptide sequence in the C-terminal domain of Rpb1 subunit of RNA polymerase II, the downstream substrate of CDK7. This heptapeptide sequence is repeated up to 52 times in the CTD of Rpb1. […]
(§2) RNA Polymerase II Serine 5 phosphorylation was detected using a specific rabbit Phospho-Rpb1 CTD (Ser5) antibody. […]
(§3) After removing blocking buffer 20 μl 1/1000 primary antibody rabbit Phospho-Rpb1 CTD (Ser5) antibody was added which binds to the phosphorylated Serine5 of the heptapeptide sequences in the CTD of Rpb1. […] Last, plates were washed 2 times with 30 μl D-PBS and wells were filled with 40 μL D-PBS, plates were sealed (Thermowell sealing tape) and stored at 4° C. until reading. Plates were read with Opera Phenix (Perkin Elmer) with 10× air objective. Data were calculated and analyzed in Phaedra.
(§4) IC50 values were calculated using the following formula: […]

Experiment [3] has as its system RNA Polymerase II Serine 5 phosphorylation in A549 cells overexpressing CDK7-mutant (C312S). Description: Imaging-based cellular RNA PolII Ser5 phosphorylation assay in A549 cells overexpressing CDK7-mutant (C312S). In kind it is cell-based, human. The settings on record: averaged over all measurements. As to the method:
as §1, §2, §3, §4

Consider `CC#CC(=O)N1CC(N2CCC(c3cc4c(c(C#N)n3)OCc3c(N5CCOCC5)ccnc3N4)CC2)C1`, for which, in experiment [1], the “CDK7 (20 nM enz.) (kinact, s^−1)” value amounted to 5.231e-05 s⁻¹ and the “CDK7 (20 nM enz.) (kinact/KI, M^−1*s^−1)” value turned out to be 1158.02 M⁻¹ s⁻¹. For the same molecule, the Ki in experiment [1] (read-out: CDK7 (20 nM enz.) (KI)) came to 45.2 nM. The “CDK7_A549 Wild-type CDK7 (pIC50)” value in experiment [2] came out at 6.8. In addition, in experiment [3], the “CDK7_A549 mutant hCDK7(pIC50)” value was <5.
